{"source": "patent US20230183323A1", "about": "(BROWN UNIVERSITY, priority 2020, published 2023)", "origin": "cited, not measured here", "target": "CDK2 (Homo sapiens, UniProt P24941)", "design": "key to the marks not given beside the values", "settings": "cited from earlier work", "data": [{"smiles": "CC(C)[C@H](CO)Nc1nc(Nc2cccc(Cl)c2)c2ncn(C(C)C)c2n1", "values": [{"measurement": "Inhibitory potency CDK2", "result": "+++"}]}]}
